# scFv variants of Ab-14 (heavy chain) against a SARS-CoV-2 spike peptide

Target peptide (SARS-CoV-2 spike, HR2 region): PDVDLGDISGINAS

The variants keep the light chain, the linker and the frameworks of Ab-14 (scFv order VH, a 15-residue (Gly4Ser)3 linker, VL).
VH: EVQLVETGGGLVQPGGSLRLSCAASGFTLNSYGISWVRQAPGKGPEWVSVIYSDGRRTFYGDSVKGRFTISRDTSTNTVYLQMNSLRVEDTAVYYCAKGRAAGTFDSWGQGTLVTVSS
VL: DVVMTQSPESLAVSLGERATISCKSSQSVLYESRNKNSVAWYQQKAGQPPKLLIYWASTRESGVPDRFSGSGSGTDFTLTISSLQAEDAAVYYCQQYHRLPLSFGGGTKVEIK

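The variants were designed computationally from a first round of random CDR variants and then made and measured. Their group label is 14H_GP_Gen (GP: Gaussian process model; Gen: genetic algorithm; a sequence that several methods proposed may carry one label only). Affinity was read by AlphaSeq, a pooled yeast mating assay with surface-displayed partners. After mating in shaken culture at 30 °C for 16 h, diploids were selected and their barcode pairs sequenced. A regression on co-assayed BCL2-family reference pairs converts the normalised counts of each replicate to an apparent Kd. The assay was run in six technical replicates.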

The parent's heavy chain CDRs are GFTLNSYGIS, VIYSDGRRTFYGDSVK, GRAAGTFDS; each variant's own CDRs replace them letter for letter. Affinities are written as log10 Kd with Kd in nM; a lower number is a better binder. A pair that was not seen in that replicate is written "ND"; this usually means weak binding, but a binder can also be missed.

{"CDR-H1": "GFDLNSYGIS", "CDR-H2": "VIYSDGRRTFYGDPVK", "CDR-H3": "GRNAGTFDS", "log10 Kd, replicates": "0.43 0.62 0.27 0.12 -0.20 0.26", "signal with controls": "0 of 18"}
{"CDR-H1": "GFSLNSYGIS", "CDR-H2": "VIYSDGRRTFYTDSVK", "CDR-H3": "GKVAGTFDS", "log10 Kd, replicates": "ND ND -1.00 ND ND -1.66", "signal with controls": "0 of 18"}
{"CDR-H1": "GFELNSYGIS", "CDR-H2": "VIYSDGRRTFYIDSVK", "CDR-H3": "GRNAGTFDS", "log10 Kd, replicates": "ND 1.44 ND 1.02 ND 1.86", "signal with controls": "0 of 18"}
{"CDR-H1": "GFDLNSYGIS", "CDR-H2": "VIYSDGRRTFYGDAVK", "CDR-H3": "GRQAGTFDS", "log10 Kd, replicates": "0.21 ND -0.24 0.03 0.35 0.37", "signal with controls": "0 of 18"}
{"CDR-H1": "GFDLNSYGIS", "CDR-H2": "VIYSDGRRTFYGDSVK", "CDR-H3": "GEAAGTFDR", "log10 Kd, replicates": "2.36 1.68 ND 1.56 2.48 ND", "signal with controls": "0 of 18"}
{"CDR-H1": "GFELNSYGIS", "CDR-H2": "VIYSDGKRTFYGDQVK", "CDR-H3": "GRTAGTFDS", "log10 Kd, replicates": "ND ND 0.22 ND ND ND", "signal with controls": "0 of 18"}
{"CDR-H1": "GFWLNEYGIS", "CDR-H2": "VIYSDGRRTFYHDSVK", "CDR-H3": "GRAAGTFDT", "log10 Kd, replicates": "0.72 0.55 0.66 0.37 0.44 0.68", "signal with controls": "0 of 18"}
{"CDR-H1": "GFDLNSYGIS", "CDR-H2": "VIYSDGRRTAYGDAVK", "CDR-H3": "GRTAGTFDS", "log10 Kd, replicates": "ND -0.89 0.52 0.06 0.01 0.18", "signal with controls": "0 of 18"}
{"CDR-H1": "GFNLNSYGIS", "CDR-H2": "VIYSDGRRTFYIDSVK", "CDR-H3": "GQAAGTFDT", "log10 Kd, replicates": "1.51 0.87 2.18 1.79 1.40 1.58", "signal with controls": "0 of 18"}
{"CDR-H1": "GFELNEYGIS", "CDR-H2": "VIYSDGRRTFYRDSVK", "CDR-H3": "GRTAGTFDS", "log10 Kd, replicates": "ND ND ND ND ND 2.82", "signal with controls": "0 of 18"}
{"CDR-H1": "GFDLNSYGIS", "CDR-H2": "VIYSDGRRTFYQDSVK", "CDR-H3": "GDAAGTFDS", "log10 Kd, replicates": "0.82 0.94 0.80 0.76 0.51 0.86", "signal with controls": "3 of 18 (2.17)"}
{"CDR-H1": "GFHLNEYGIS", "CDR-H2": "VIYSDGRRTFYGDSVK", "CDR-H3": "GEAAGTFDS", "log10 Kd, replicates": "0.98 0.35 1.20 0.27 0.86 0.54", "signal with controls": "1 of 18 (0.95)"}
{"CDR-H1": "GFDLNSYGIS", "CDR-H2": "VIYSDGRRTFYVDSVK", "CDR-H3": "GNTAGTFDS", "log10 Kd, replicates": "0.04 -0.11 0.05 -0.30 -0.06 -0.12", "signal with controls": "0 of 18"}
{"CDR-H1": "GFELNSYGIS", "CDR-H2": "VIYSDGRRTFYGDSVK", "CDR-H3": "GAAAGTFDS", "log10 Kd, replicates": "0.96 1.38 2.06 0.83 1.31 0.97", "signal with controls": "0 of 18"}
{"CDR-H1": "GFWLNEYGIS", "CDR-H2": "VIYSDGRRTFYGDSVK", "CDR-H3": "GQAAGTFDV", "log10 Kd, replicates": "1.97 1.90 2.66 1.06 0.88 1.33", "signal with controls": "0 of 18"}
{"CDR-H1": "GFDLNSYGIS", "CDR-H2": "VIYSDGRRTFYKDSVK", "CDR-H3": "GEAAGTFDS", "log10 Kd, replicates": "0.20 0.31 0.26 0.24 0.28 0.41", "signal with controls": "1 of 18 (2.16)"}
{"CDR-H1": "GFRLNEYGIS", "CDR-H2": "VIYSDGRRTFYGDSVK", "CDR-H3": "GRTAGTFDT", "log10 Kd, replicates": "1.09 0.85 1.00 0.48 0.18 1.25", "signal with controls": "0 of 18"}
{"CDR-H1": "GFSLNEYGIS", "CDR-H2": "VIYSDGLRTFYGDSVK", "CDR-H3": "GRTAGTFDS", "log10 Kd, replicates": "ND -0.49 -0.49 -0.54 -0.63 -0.25", "signal with controls": "0 of 18"}
{"CDR-H1": "GFDLNSYGIS", "CDR-H2": "VIYSDGRRTMYGDSVK", "CDR-H3": "GRTAGTFDS", "log10 Kd, replicates": "ND ND ND ND ND ND", "signal with controls": "0 of 18"}
{"CDR-H1": "GFDLNSYGIS", "CDR-H2": "VIYSDGRRTFYVDSVK", "CDR-H3": "GQTAGTFDS", "log10 Kd, replicates": "1.18 1.20 0.47 0.94 0.47 ND", "signal with controls": "0 of 18"}
{"CDR-H1": "GFDLNSYGIS", "CDR-H2": "VIYSDGRRTFYGDSVK", "CDR-H3": "GWTAGTFDD", "log10 Kd, replicates": "2.57 0.84 0.56 0.78 0.35 0.83", "signal with controls": "0 of 18"}
{"CDR-H1": "GFDLNSYGIS", "CDR-H2": "VIYSDGRRTFYVDSVK", "CDR-H3": "GWTAGTFDS", "log10 Kd, replicates": "0.42 0.59 0.02 0.48 0.80 0.78", "signal with controls": "0 of 18"}

Picked from the list: the 2 lowest averages where every replicate gave a value.

{"CDR-H1": "GFDLNSYGIS", "CDR-H2": "VIYSDGRRTFYVDSVK", "CDR-H3": "GNTAGTFDS", "log10 Kd, replicates": "0.04 -0.11 0.05 -0.30 -0.06 -0.12", "signal with controls": "0 of 18"}
{"CDR-H1": "GFDLNSYGIS", "CDR-H2": "VIYSDGRRTFYGDPVK", "CDR-H3": "GRNAGTFDS", "log10 Kd, replicates": "0.43 0.62 0.27 0.12 -0.20 0.26", "signal with controls": "0 of 18"}

The range of this assay differs from that of the first round, and the authors advise against merging the two. Of ten entries with the parent sequence, four were seen in most replicates (averages 0.34 to 2.37), three in one and three in none, so single entries are noisy. In the paper, a design with two or fewer of six values counts as a poor binder. As a blank, each scFv also met three strains without target: over all heavy chain designs, 1% of these pairings were detected, typically at 2.08 and seldom below 0.84. For each scFv, signals with the empty controls are counted beside the result, with their mean in brackets.

From the AlphaSeq antibody data of Li et al. 2023 (doi:10.1038/s41467-023-39022-2), copy in the FLAb collection.